Results from patent US20130184337A1, “SODIUM ASCORBATE STIMULATION OF ELASTOGENESIS” (THE HOSPITAL FOR SICK CHILDREN, priority 2012, published 2013).
“Also recorded” adds a separate entry of the source.

Tested on: normal dermal fibroblasts
Assay: Elastic fiber deposition (immuno-staining morphometry, [3H]-valine insoluble elastin) in monolayer cultures
Assay type: cell-based, human
Conditions: inhibitor pre-incubation then 100 μM SA, 5% FBS; probenecid 400 μM
Experimental: Cell Cultures—Fibroblasts initially grew out from the explants of these full thickness skin biopsies and were maintained. The primary cultures of fat-derived fibroblasts obtained from Thermogenesis (Rancho Cordova, Calif.) were also tested. In all described experiments, 2-4 passages of both kinds of fibroblasts were used. In experiments aimed at assessing ECM production, cells were initially plated at a concentration of 100,000 cells/dish.
Immuno-staining—All cultures maintained in the presence and absence of indicated reagents were either fixed in cold 100% methanol at −20° C. (for detection of elastin) or in 4% paraformaldehyde at room temperature (for detection of collagen I). The multiple parallel cultures were then incubated with 10 μg/ml of polyclonal antibody to tropoelastin (Elastin Products, Owensville, Mich.), or polyclonal antibody to collagen type I (Chemicon, Temecula, Calif.). […] All of the cultures were then examined with a Nikon Eclipse E1000 microscope attached to a cooled CCD camera (QImaging, Retiga EX) and analyzed by the computer-generated morphometric analysis system (Image-Pro Plus software, Media Cybernetics, Silver Springs, Md.) as previously described.
Quantitative Assays of Insoluble Elastin—Fibroblasts were grown to confluency in 35-mm culture dishes (100,000 cells/dish). […]

## COc1cc([C@@H]2c3cc4c(cc3[C@H](O)[C@H]3COC(=O)[C@@H]23)OCO4)cc(OC)c1OC [PPP, reference compound]
  elastogenic effects of 100 μM SA after pre-treatment with the inhibitor (mRNA, tropoelastin, insoluble elastin, elastic fibers): did not trigger elastogenic effects; also recorded: abolish all elastogenic effects
